# From patent US4088752A, “Oral composition for plaque and caries inhibition” (Gaba AG, priority 1974, dated 1978)
# Assay: Postmortal rat molar solubility (molar surface dissolution rate)
# Type: in vivo, Osbourne-Mendel rats
# Conditions: per mand: m1 + m2 in 10 ml 0.025 M acetate buffer pH 4, 60 min., 37° C; standard error 5.7
# Protocol: 0.1 ml of the test solutions were applied once daily during the whole 20-day experimental period in which diet 2000a and tap water were available ad libitum. On day 22 the animals were superinfected twice with Streptococcus mutans OMZ 176. Caries, molar surface dissolution rate and fluoride content were assessed acccording to routine procedures.
substance,measurement,value
N-(2-hydroxyethyl)-2-heptadecen-9-yl-imidazoline orthophosphate [Example 6],Postmortal rat molar solubility,134 μgP
